Laboratory results from paper PMC6269003, “Two New Coumarins from Micromelum falcatum with Cytotoxicity and Brine Shrimp Larvae Toxicity” (Molecules, 2012).

System: brine shrimp larvae
Settings: 96 well plates assay
Procedure: According to the method described by Wanyoike, brine shrimp eggs (Ocean Star International, Inc., USA) were hatched in a large beaker containing natural sea water (South China Sea) and they were cultured at room temperature for 48 h. With the help of a light source, the larvae grouped together on one side of the vessel and were easily collected for the assay. […] Each test was processed in triplicate with approximate ten larvae. Brine shrimps were counted under a magnifying glass after 24 h of incubation and maintaining the 96 well plates under illumination. The controls were prepared in the same manner except that the test samples were omitted.

Substance: microfalcatin isovalerate [Compound 14]
- LC50 against brine shrimp larvae: < 500 µM
